Publication PMC3460729, “Innate immune properties of selected human neuropeptides against Moraxella catarrhalis and nontypeable Haemophilus influenzae” (BMC Immunology, 2012)

Test system: human PMNs stimulated with H. influenzae ATCC 49247
Assay: H. influenzae-stimulated ROS generation by PMNs, luminol-dependent chemiluminescence
Assay type: cell-based
Conditions: 10^−8 M NP, nonopsonized NTHi; 4 donors
Procedure: Polymorphonuclear leukocytes (PMNs) from healthy young adult volunteers were isolated from venous blood samples anticoagulated with Lithium-heparin (7.5 ml) by ficoll (Aqua-Med, Poland) density gradient centrifugation (2000 rpm/30 min), followed by hypotonic lysis of erythrocytes with a lysing buffer (0.83% NH4Cl, 0.1% KHCO3, EDTA, pH 7.4). After two washes (1400 rpm/10 min) in PBS, PMNs were resuspended to the final concentration of […] cells/ml in phagocytic buffer: HBSS with Ca^++ and Mg^++ supplemented with 1% HiFBS. The purity of granulocyte suspensions was checked using 15 μg/ml of acridine orange. […] Isolated PMNs were kept for 30 min at 37°C and 5% CO2 until used.
Reactive oxygen species (ROS) formation by PMNs was measured using luminol-dependent chemiluminescence assay (CL) in white flat-bottom 96-well microplates (NUNC, Denmark). The reaction mixture of total volume 200 μl in each well contained: 100 μl of PMN suspension in HBSS–Ca^++Mg^++ (10^5 cells/well), 40 μl of luminol (50 μM/well), 40 μl of fMLP (0.2 μM/well), 20 μl of particular NP (in the range 10^−12–10^−8 M/well). […] The maximal value of CL response curve was expressed as peak height (PHCL) for fMLP stimulant. In other cases the area under chemiluminescence curve (AUCCL) was calculated. […] Results were expressed as mean ± SD.

Compound: CSCC[C@H](NC(=O)[C@H](CC(C)C)NC(=O)CNC(=O)[C@H](Cc1ccccc1)NC(=O)[C@H](Cc1ccccc1)NC(=O)[C@H](CCC(N)=O)NC(=O)[C@H](CCC(N)=O)NC(=O)[C@@H]1CCCN1C(=O)[C@H](CCCCN)NC(=O)[C@@H]1CCCN1C(=O)[C@@H](N)CCCNC(=N)N)C(N)=O [SP, substance P]
- mean relative CL increase: 8.2 ± 5.4%
